{
  "source": "patent US7390890B2",
  "about": "“Inhibitors of nucleoside metabolism” (Albert Einstein College of Medicine of Yeshiva University, priority 1997, dated 2008)",
  "origin": "cited, not measured here",
  "test_system": "contact sensitivity ear swelling",
  "conditions": "mice; cited from earlier work",
  "data": [
    {"smiles": "Nc1nc2c(Cc3cccnc3)c[nH]c2c(=O)[nH]1", "note": "[9-(3-pyridylmethyl)-9-deazaguanine]", "values": [
      {"measurement": "oral dose required for activity in contact sensitivity ear swelling assay", "result": 50, "unit": "mg/kg"}
    ]}
  ]
}
